# Assay results reported in patent US8637509B2, “Azaindazoles” (GlaxoSmithKline LLC, priority 2010, dated 2014).
# By UniProt entry, the sequences of proteins in these tests, tags left out.
# UniProt Q15910, whole entry: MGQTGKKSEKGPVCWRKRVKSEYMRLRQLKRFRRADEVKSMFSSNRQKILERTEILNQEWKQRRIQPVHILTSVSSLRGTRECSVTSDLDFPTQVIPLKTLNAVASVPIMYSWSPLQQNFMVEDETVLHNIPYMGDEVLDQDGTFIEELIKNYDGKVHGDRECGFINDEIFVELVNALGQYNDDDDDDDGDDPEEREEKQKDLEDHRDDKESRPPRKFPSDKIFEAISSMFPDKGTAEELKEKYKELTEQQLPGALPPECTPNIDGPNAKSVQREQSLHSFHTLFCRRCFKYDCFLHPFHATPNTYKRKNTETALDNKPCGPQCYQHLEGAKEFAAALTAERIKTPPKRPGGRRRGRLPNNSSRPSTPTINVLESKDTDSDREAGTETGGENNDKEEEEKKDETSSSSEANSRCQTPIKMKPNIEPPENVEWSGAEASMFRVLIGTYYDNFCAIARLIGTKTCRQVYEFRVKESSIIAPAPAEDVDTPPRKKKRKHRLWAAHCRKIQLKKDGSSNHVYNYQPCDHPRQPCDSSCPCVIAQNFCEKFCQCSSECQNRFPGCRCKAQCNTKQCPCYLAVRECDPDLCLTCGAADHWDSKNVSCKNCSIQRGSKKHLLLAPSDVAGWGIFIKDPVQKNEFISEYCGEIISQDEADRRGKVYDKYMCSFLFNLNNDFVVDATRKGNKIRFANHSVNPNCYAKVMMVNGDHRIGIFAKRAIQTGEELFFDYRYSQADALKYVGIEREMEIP
# Molecular target: T1, EZH2 (Homo sapiens, UniProt Q15910)
# T1 construct: GRITS37108
# Test: EZH2 methyltransferase SPA assay (3H-SAM, Hela nucleosomes)
# Type: biochemical
# Details: 10 nM EZH2, 7 μg/ml Hela nucleosomes, 2-parameter IC50 fit; single-point-in-time values
substance,measurement,value
"N-[(4,6-Dimethyl-2-oxo-1,2-dihydro-3-pyridinyl)methyl]-1-(1-methylethyl)-6-[6-(4-methyl-1-piperazinyl)-3-pyridinyl]-1H-pyrazolo[3,4-b]pyridine-4-carboxamide [Ex 82]",IC50,108 nM
